In ChEMBL document CHEMBL2331380, “Evaluation of potential Myt1 kinase inhibitors by TR-FRET based binding assay” (Eur J Med Chem, 2013):

Species on record: Homo sapiens
Test: Selectivity ratio of IC50 for Myt1 kinase (unknown origin) to IC50 for Wee1 (unknown origin)

Ratio IC50: 3
Compound: CCN(CC)CCOc1ccc(Nc2ncc3cc(-c4c(Cl)cccc4Cl)c(=O)n(C)c3n2)cc1
